Values quoted from earlier work, collected in patent publication EP0719130B1, “COMPLEX CALCIUM AND FLUORIDE CONTAINING MOUTH RINSES, DENTIFRICES, AND CHEWABLE TABLETS” (AMERICAN DENTAL ASSOCIATION HEALTH FOUNDATION, priority 1993, dated 1995).

Conditions: buffer acid or salt

| pK | Substance |
| --- | --- |
| 9.8 | aspartate salts |
| 4.8 | butyrate salts |
| 9.8 | glycine salts |

| Substance | pK |
| --- | --- |
| Lysine salts | 10.5 |
